# Reference: PubChem BioAssay AID720551 (National Center for Advancing Translational Sciences (NCATS), 2013)
# Protein sequences, listed by entry. Tags and fused reporters are not part of them.
# UniProt Q12809, whole entry: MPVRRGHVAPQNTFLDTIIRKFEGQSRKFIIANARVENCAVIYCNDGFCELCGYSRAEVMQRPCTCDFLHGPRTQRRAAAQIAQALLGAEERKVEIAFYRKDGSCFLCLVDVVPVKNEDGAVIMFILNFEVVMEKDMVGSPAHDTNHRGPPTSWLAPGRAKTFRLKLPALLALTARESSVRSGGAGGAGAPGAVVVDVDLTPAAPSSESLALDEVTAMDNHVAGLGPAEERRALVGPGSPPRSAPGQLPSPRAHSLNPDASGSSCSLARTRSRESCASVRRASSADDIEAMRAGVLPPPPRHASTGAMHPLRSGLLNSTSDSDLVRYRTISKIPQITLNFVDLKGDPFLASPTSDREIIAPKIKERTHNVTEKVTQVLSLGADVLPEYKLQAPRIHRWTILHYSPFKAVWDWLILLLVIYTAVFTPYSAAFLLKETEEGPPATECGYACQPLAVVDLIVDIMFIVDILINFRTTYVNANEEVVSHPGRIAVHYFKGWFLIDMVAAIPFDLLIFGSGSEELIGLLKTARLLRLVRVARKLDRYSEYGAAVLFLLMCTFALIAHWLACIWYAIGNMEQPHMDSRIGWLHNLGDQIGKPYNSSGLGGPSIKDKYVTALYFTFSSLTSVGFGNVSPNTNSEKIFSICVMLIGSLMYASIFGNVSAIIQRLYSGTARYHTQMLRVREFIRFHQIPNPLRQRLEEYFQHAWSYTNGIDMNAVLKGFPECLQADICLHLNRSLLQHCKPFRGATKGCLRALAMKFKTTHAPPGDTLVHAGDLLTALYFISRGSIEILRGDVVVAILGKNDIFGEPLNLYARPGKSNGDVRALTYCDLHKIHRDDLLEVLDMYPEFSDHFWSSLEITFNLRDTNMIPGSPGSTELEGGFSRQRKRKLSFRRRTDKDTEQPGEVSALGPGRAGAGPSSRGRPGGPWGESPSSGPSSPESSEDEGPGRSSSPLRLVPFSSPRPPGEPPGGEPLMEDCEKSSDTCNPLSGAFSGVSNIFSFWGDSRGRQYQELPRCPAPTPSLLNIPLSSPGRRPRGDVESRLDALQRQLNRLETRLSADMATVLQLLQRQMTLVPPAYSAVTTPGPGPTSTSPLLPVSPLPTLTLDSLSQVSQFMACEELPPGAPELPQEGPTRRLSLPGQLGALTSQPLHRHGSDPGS
# Only a part is listed here, and it is no random draw. Calls of active or inactive are those of the source.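 How the source made its calls: active means maximum activity change below -70%; inconclusive means maximum activity change between -70% and -50%; inactive means maximum activity change above -50%.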
# Biological target: Voltage-gated inwardly rectifying potassium channel KCNH2 (Homo sapiens) (UniProt Q12809)
# Experiment: qHTS for Inhibitors of KCHN2 3.1: Wildtype qHTS
# Conditions: U2OS, BacMam KCNH2, thallium flux FluxOr; at 1.84 µM; active compounds read low
# Excerpt: Many antipsychotic drugs that inhibit the neurotransmitter dopamine also bind to hERG1 channel which might help explain their antipsychotic activity but also produces cardiac side effects. The discovery of the novel KCNH2 3.1 isoform offers a potential new target for the development of antipsychotic drugs without cardiac side effects. This proposal will use a high throughput thallium flux assay developed for KCNH2 to screen compounds that modulate the activity of KCNH2 3.1. The wild type KCNH2 channel will also be screened in parallel to help define the selective modulators of this KCNH2 3.1 potassium channel. The resulting compounds will be validated in electrophysiology experiments. The availability of animal models will allow future testing in vivo for effects on memory and other aspects of animal physiology linked with psychosis. NIH Chemical Genomics Center [NCGC] NIH Molecular Libraries Probe Centers Network [MLPCN] MLPCN Grant: MH096539 Assay Submitter (PI): James Barrow, Johns Hopkins University, Lieber Institute for Brain Development
# U2OS cells were resuspended in cell media containing 10% fetal calf serum (FCS) at a concentration of 2 million cells / mL. […] A stimulation buffer was added to the plate and the second kinetic read (2 min) was obtained. The rate constant was calculated from the kinetic reads and normalized to the positive and negative DMSO controls.
# On the % scale 0 is the no-effect control and ±100 the full control effect.
row,Compound,activity change
1,CCC(=O)N(c1ccccc1)C1(COC)CCN(CCn2nnn(CC)c2=O)CC1,inactive: -3.95%
